Measured values as given in patent publication US7507732B2, “Cyclopentapyridine and tetrahydroquinoline derivatives” (Pfizer Inc., priority 2005, dated 2009).

Sequences of proteins named here, by UniProt entry; tags and fusion partners are left off. Residues count along the entry.
UniProt P14842, whole entry: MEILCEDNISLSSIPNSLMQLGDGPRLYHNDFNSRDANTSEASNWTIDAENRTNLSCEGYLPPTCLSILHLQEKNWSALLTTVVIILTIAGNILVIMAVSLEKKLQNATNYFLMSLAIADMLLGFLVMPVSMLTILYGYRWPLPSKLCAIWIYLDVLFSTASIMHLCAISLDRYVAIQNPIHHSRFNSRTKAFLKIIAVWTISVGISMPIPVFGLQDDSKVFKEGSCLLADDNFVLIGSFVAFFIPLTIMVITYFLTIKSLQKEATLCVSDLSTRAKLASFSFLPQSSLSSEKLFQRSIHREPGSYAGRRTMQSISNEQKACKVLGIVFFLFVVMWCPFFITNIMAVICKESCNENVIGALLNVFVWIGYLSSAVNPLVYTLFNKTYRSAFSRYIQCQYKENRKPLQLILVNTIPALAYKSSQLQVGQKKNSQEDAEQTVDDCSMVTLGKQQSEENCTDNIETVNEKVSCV
UniProt P41595, whole entry: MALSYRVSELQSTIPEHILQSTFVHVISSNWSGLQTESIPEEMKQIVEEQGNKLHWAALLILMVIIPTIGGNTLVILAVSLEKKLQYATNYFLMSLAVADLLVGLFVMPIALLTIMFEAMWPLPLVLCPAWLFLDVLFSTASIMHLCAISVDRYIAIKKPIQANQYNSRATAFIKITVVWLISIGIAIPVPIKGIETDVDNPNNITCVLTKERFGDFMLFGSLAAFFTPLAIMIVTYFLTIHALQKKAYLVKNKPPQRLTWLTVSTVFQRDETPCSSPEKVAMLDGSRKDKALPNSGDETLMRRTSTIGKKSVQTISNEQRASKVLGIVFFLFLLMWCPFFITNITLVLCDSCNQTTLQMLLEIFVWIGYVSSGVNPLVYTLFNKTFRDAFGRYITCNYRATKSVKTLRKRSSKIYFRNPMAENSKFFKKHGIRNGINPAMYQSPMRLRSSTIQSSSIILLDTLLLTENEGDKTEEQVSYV
UniProt P28335, 33-458 limits assumed: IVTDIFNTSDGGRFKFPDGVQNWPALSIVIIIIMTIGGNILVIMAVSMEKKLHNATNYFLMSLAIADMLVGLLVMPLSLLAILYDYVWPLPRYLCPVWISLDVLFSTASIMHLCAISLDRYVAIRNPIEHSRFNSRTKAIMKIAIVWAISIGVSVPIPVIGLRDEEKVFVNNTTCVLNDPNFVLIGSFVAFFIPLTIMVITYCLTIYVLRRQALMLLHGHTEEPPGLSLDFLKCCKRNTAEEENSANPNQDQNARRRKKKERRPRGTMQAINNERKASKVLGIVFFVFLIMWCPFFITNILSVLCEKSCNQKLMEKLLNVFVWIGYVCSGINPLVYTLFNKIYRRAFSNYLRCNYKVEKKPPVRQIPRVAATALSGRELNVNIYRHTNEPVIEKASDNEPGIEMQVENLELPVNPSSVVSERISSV

Columns and labels:
rat 5HT2a receptor = rat 5HT2a receptor (Rattus norvegicus, UniProt P14842); test: 5HT2a Binding Procedure (competition binding using 125I-DOI, membranes of transfected NIH 3T3 mouse cells); conditions: read-out: 2aKi
Method: Affinity of compounds at the serotonin 5HT2a binding site is determined by competition binding in NIH 3T3 mouse cells transfected with the rat 5HT2a receptor using 125I-DOI.

human 5HT2b receptor = human 5HT2b receptor (Homo sapiens, UniProt P41595); test: 5HT2b Binding Procedure (competition binding with 3H-LSD, CHO cell membranes); conditions: read-out: 2bKi
human 5HT2c receptor = human 5HT2c receptor (Homo sapiens, UniProt P28335); test: 5HT2c Binding Procedure (competition binding against 3H-5HT, membranes of transfected Swiss 3T3 mouse cells); conditions: read-out: 2cKi
Method: Affinity of compounds at the serotonin 5HT2c binding site is determined by competition binding in Swiss 3T3 mouse cells (available from the American Type Culture Collection (ATCC), Manassas, Va.) transfected with the human 5HT2c receptor against ^3H-5HT.

Fc1c(Cl)cccc1O[C@H]1CCCc2cc(Cl)c(N3CCNCC3)nc21
Ki (rat 5HT2a receptor): 7.11 nM
Ki (human 5HT2b receptor): 12 nM
Ki (human 5HT2c receptor): 5.82 nM
